Measured values taken from patent publication US9302989B2 (priority 2010, dated 2016).

By UniProt entry, the sequences of proteins in these tests, tags left out. Where a name states a change or a piece, a line headed by the entry shows the natural chain unless it says otherwise.
UniProt P43490: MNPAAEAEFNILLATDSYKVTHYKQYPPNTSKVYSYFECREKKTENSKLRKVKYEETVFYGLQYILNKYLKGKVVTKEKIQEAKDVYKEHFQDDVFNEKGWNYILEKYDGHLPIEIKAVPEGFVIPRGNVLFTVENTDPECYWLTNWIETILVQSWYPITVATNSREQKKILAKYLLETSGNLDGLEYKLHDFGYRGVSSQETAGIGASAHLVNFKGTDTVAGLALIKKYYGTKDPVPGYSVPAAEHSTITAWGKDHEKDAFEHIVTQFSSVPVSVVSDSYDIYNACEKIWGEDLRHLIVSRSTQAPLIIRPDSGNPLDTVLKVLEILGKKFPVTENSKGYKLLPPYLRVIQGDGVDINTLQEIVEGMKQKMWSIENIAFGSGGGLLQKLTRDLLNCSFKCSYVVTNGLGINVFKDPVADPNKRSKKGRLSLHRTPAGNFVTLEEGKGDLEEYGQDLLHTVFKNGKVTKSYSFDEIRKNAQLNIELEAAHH

These compounds were tested against NAMPT (Homo sapiens (Human), UniProt P43490). Conditions: read-out: TR-FRET Binding IC50 (μM) probe 1.

Structure (SMILES) | IC50 [µM]
O=C(Nc1ccc(-c2cnn(Cc3ccccc3)c2)cc1)N1Cc2ccccc2C1 [Example 323, N-[4-(1-benzyl-1H-pyrazol-4-yl)phenyl]-1,3-dihydro-2H-isoindole-2-carboxamide] | 0.0988
O=C(NCCCc1ccccc1)c1ccc(NC(=O)N2Cc3ccc(C(F)(F)F)cc3C2)cc1 [Example 151, N-{4-[(3-phenylpropyl)carbamoyl]phenyl}-5-(trifluoromethyl)-1,3-dihydro-2H-isoindole-2-carboxamide] | 0.0733
O=C(Nc1ccc(C(=O)N2CCN(C(=O)c3ccccc3F)CC2)cc1)N1Cc2ccccc2C1 [Example 102, N-(4-{[4-(2-fluorobenzoyl)piperazin-1-yl]carbonyl}phenyl)-1,3-dihydro-2H-isoindole-2-carboxamide] | 0.0395
O=C(NCCc1ccc(O)c(O)c1)c1ccc(NC(=O)N2Cc3ccccc3C2)cc1 [Example 81, N-(4-{[2-(3,4-dihydroxyphenyl)ethyl]carbamoyl}phenyl)-1,3-dihydro-2H-isoindole-2-carboxamide] | 0.0301
O=C(Nc1ccc(-c2noc(C3CCOC3)n2)cc1)N1Cc2ccccc2C1 (centres unmarked) [Example 428, N-{4-[5-(tetrahydrofuran-3-yl)-1,2,4-oxadiazol-3-yl]phenyl}-1,3-dihydro-2H-isoindole-2-carboxamide] | 0.0327
COc1ccc(CNC(=O)c2ccc(NC(=O)N3Cc4ccccc4C3)cc2)c(OC)c1 [Example 415, N-{4-[(2,4-dimethoxybenzyl)carbamoyl]phenyl}-1,3-dihydro-2H-isoindole-2-carboxamide] | 0.0121
O=C(Nc1ccc(C(=O)N2CCOCC2)cc1)N1Cc2ccccc2C1 [Example 246, N-[4-(morpholin-4-ylcarbonyl)phenyl]-1,3-dihydro-2H-isoindole-2-carboxamide] | 0.618
O=C1CC[C@@H](C(=O)N2CCN(c3ccc(NC(=O)N4Cc5ccccc5C4)cc3)CC2)N1 [Example 498, N-{4-[4-(5-oxo-L-prolyl)piperazin-1-yl]phenyl}-1,3-dihydro-2H-isoindole-2-carboxamide] | 0.307
N#Cc1ccc(C(=O)N2CCN(c3ccc(NC(=O)N4Cc5ccccc5C4)cc3)CC2)cc1 [Example 519, N-{4-[4-(4-cyanobenzoyl)piperazin-1-yl]phenyl}-1,3-dihydro-2H-isoindole-2-carboxamide] | 0.0968
O=C(Nc1ccc(-c2c[nH]c(=O)c3ccccc23)cc1)N1Cc2ccc(CN3CCCC3)cc2C1 [Example 387, N-[4-(1-oxo-1,2-dihydroisoquinolin-4-yl)phenyl]-5-(pyrrolidin-1-ylmethyl)-1,3-dihydro-2H-isoindole-2-carboxamide] | 0.17
O=C(Nc1cccc(F)c1)c1ccc(NC(=O)N2Cc3ccccc3C2)cc1 [Example 223, N-{4-[(3-fluorophenyl)carbamoyl]phenyl}-1,3-dihydro-2H-isoindole-2-carboxamide] | 0.302
CC(C)(C)CNC(=O)c1ccc(NC(=O)N2Cc3ccccc3C2)cc1 [Example 31, N-{4-[(2,2-dimethylpropyl)carbamoyl]phenyl}-1,3-dihydro-2H-isoindole-2-carboxamide] | 0.0149
O=C(Nc1ccc(C(=O)N2CCn3cncc3C2)cc1)N1Cc2ccccc2C1 [Example 162, N-[4-(5,6-dihydroimidazo[1,5-a]pyrazin-7(8H)-ylcarbonyl)phenyl]-1,3-dihydro-2H-isoindole-2-carboxamide] | 0.0882
O=C1Cc2ccccc2C(c2ccc(NC(=O)N3Cc4ccccc4C3)cc2)=NN1 [Example 386, N-[4-(4-oxo-4,5-dihydro-3H-2,3-benzodiazepin-1-yl)phenyl]-1,3-dihydro-2H-isoindole-2-carboxamide] | 0.0707
O=C(CCCc1cccs1)Nc1ccc(NC(=O)N2Cc3ccccc3C2)cc1 [Example 299, N-(4-{[4-(2-thienyl)butanoyl]amino}phenyl)-1,3-dihydro-2H-isoindole-2-carboxamide] | 0.00673
O=C(Nc1ccc(C(=O)N2CCN(c3cccnn3)CC2)cc1)N1Cc2ccc(F)cc2C1 [Example 15, 5-fluoro-N-(4-{[4-(pyridazin-3-yl)piperazin-1-yl]carbonyl}phenyl)-1,3-dihydro-2H-isoindole-2-carboxamide] | 0.00991
O=C(NCCc1cccs1)c1ccc(NC(=O)N2Cc3ccc(F)cc3C2)cc1 [Example 61, 5-fluoro-N-(4-{[2-(2-thienyl)ethyl]carbamoyl}phenyl)-1,3-dihydro-2H-isoindole-2-carboxamide] | 0.0225
CCCNC(=O)c1ccc(NC(=O)N2Cc3ccc(NC(C)=O)cc3C2)cc1 [Example 278, 5-acetamido-N-[4-(propylcarbamoyl)phenyl]-1,3-dihydro-2H-isoindole-2-carboxamide] | 0.385
O=C(Nc1ccc(N2CCN(C(=O)C3CCOC3)CC2)cc1)N1Cc2ccccc2C1 (centres unmarked) [Example 509, N-{4-[4-(tetrahydrofuran-3-ylcarbonyl)piperazin-1-yl]phenyl}-1,3-dihydro-2H-isoindole-2-carboxamide] | 0.211
CCC(=O)N1CCN(c2ccc(NC(=O)N3Cc4ccccc4C3)cc2)CC1 [Example 342, N-[4-(4-propionylpiperazin-1-yl)phenyl]-1,3-dihydro-2H-isoindole-2-carboxamide] | 0.103
O=C(NCCCCc1ccccc1)N1Cc2ccccc2C1 [Example 354, N-(4-phenylbutyl)-1,3-dihydro-2H-isoindole-2-carboxamide] | 0.0405

Structure (SMILES) | IC50 [µM]
O=C(COCc1ccccc1)Nc1ccc(NC(=O)N2Cc3ccccc3C2)cc1 [Example 295, N-(4-{[(benzyloxy)acetyl]amino}phenyl)-1,3-dihydro-2H-isoindole-2-carboxamide] | 0.0141
NC(=O)c1ccc(NC(=O)N2Cc3ccccc3C2)cc1 [Example 250, N-(4-carbamoylphenyl)-1,3-dihydro-2H-isoindole-2-carboxamide] | 0.78
COc1ccc(CCNC(=O)c2ccc(NC(=O)N3Cc4ccccc4C3)cc2)c(OC)c1 [Example 140, N-(4-{[2-(2,4-dimethoxyphenyl)ethyl]carbamoyl}phenyl)-1,3-dihydro-2H-isoindole-2-carboxamide] | 0.0655
O=C(Nc1ccc(C(=O)N2CCN(c3ccc(C(F)(F)F)cn3)CC2)cc1)N1Cc2ccccc2C1 [Example 110, N-[4-({4-[5-(trifluoromethyl)pyridin-2-yl]piperazin-1-yl}carbonyl)phenyl]-1,3-dihydro-2H-isoindole-2-carboxamide] | 0.0422
O=C(Nc1ccc(C(=O)N2CCN(c3cccc(F)c3)CC2)cc1)N1Cc2ccccc2C1 [Example 76, N-(4-{[4-(3-fluorophenyl)piperazin-1-yl]carbonyl}phenyl)-1,3-dihydro-2H-isoindole-2-carboxamide] | 0.0278
CC(C)(C)OC(=O)N1CCC(c2ccc(NC(=O)N3Cc4ccccc4C3)cc2)CC1 [Example 401, tert-butyl 4-{4-[(1,3-dihydro-2H-isoindol-2-ylcarbonyl)amino]phenyl}piperidine-1-carboxylate] | 0.072
O=C(Nc1ccc(C(=O)N(CCO)Cc2ccccc2)cc1)N1Cc2ccccc2C1 [Example 175, N-{4-[benzyl(2-hydroxyethyl)carbamoyl]phenyl}-1,3-dihydro-2H-isoindole-2-carboxamide] | 0.12
COc1ccc(NC(=O)c2ccc(NC(=O)N3Cc4ccccc4C3)cc2)c(OC)c1 [Example 131, N-{4-[(2,4-dimethoxyphenyl)carbamoyl]phenyl}-1,3-dihydro-2H-isoindole-2-carboxamide] | 0.0573
N#Cc1ccc(NC(=O)N2Cc3ccccc3C2)cc1 [Example 443, N-(4-cyanophenyl)-1,3-dihydro-2H-isoindole-2-carboxamide] | 0.365
O=C(Nc1ccc(C(=O)N2CCSCC2)cc1)N1Cc2ccccc2C1 [Example 161, N-[4-(thiomorpholin-4-ylcarbonyl)phenyl]-1,3-dihydro-2H-isoindole-2-carboxamide] | 0.0876
CCOCCCNC(=O)c1ccc(NC(=O)N2Cc3ccccc3C2)cc1 [Example 88, N-{4-[(3-ethoxypropyl)carbamoyl]phenyl}-1,3-dihydro-2H-isoindole-2-carboxamide] | 0.033
O=C(Nc1ccc(C(F)(F)F)cc1)N1Cc2ccccc2C1 [Example 444, N-[4-(trifluoromethyl)phenyl]-1,3-dihydro-2H-isoindole-2-carboxamide] | 0.281
O=C(N[C@@H](CO)c1ccccc1)c1ccc(NC(=O)N2Cc3ccccc3C2)cc1 [Example 253, N-(4-{[(1R)-2-hydroxy-1-phenylethyl]carbamoyl}phenyl)-1,3-dihydro-2H-isoindole-2-carboxamide] | 0.852
O=C(NCCCc1ccccc1)c1ccc(NC(=O)N2Cc3cccc(Cl)c3C2)cc1 [Example 126, 4-chloro-N-{4-[(3-phenylpropyl)carbamoyl]phenyl}-1,3-dihydro-2H-isoindole-2-carboxamide] | 0.0537
Cc1ccc2c(c1)CN(C(=O)Nc1ccc(C(=O)NCCC(C)C)cc1)C2 [Example 43, 5-methyl-N-{4-[(3-methylbutyl)carbamoyl]phenyl}-1,3-dihydro-2H-isoindole-2-carboxamide] | 0.0178
O=C(Nc1ccc(C2CCN(C(=O)c3ccccc3)CC2)cc1)N1Cc2ccccc2C1 [Example 407, N-[4-(1-benzoylpiperidin-4-yl)phenyl]-1,3-dihydro-2H-isoindole-2-carboxamide] | 0.00145
O=C(Nc1cnn(Cc2cccc(Cl)c2)c1)c1ccc(NC(=O)N2Cc3ccccc3C2)cc1 [Example 199, N-(4-{[1-(3-chlorobenzyl)-1H-pyrazol-4-yl]carbamoyl}phenyl)-1,3-dihydro-2H-isoindole-2-carboxamide] | 0.179
O=C(CCOc1ccccc1)Nc1ccc(NC(=O)N2Cc3ccccc3C2)cc1 [Example 297, N-{4-[(3-phenoxypropanoyl)amino]phenyl}-1,3-dihydro-2H-isoindole-2-carboxamide] | 0.012
CC[C@H](CO)NC(=O)c1ccc(NC(=O)N2Cc3ccccc3C2)cc1 [Example 258, N-(4-{[(2R)-1-hydroxybutan-2-yl]carbamoyl}phenyl)-1,3-dihydro-2H-isoindole-2-carboxamide] | 1.52
COc1cc(NC(=O)c2ccc(NC(=O)N3Cc4ccccc4C3)cc2)cc(OC)c1OC [Example 111, N-{4-[(3,4,5-trimethoxyphenyl)carbamoyl]phenyl}-1,3-dihydro-2H-isoindole-2-carboxamide] | 0.044
